Test results as given in patent US7563809B2, “Nociceptin analogs” (dated 2009).

By UniProt entry, the sequences of proteins in these tests, tags left out. Where a name states a change or a piece, a line headed by the entry shows the natural chain unless it says otherwise.
UniProt P35372: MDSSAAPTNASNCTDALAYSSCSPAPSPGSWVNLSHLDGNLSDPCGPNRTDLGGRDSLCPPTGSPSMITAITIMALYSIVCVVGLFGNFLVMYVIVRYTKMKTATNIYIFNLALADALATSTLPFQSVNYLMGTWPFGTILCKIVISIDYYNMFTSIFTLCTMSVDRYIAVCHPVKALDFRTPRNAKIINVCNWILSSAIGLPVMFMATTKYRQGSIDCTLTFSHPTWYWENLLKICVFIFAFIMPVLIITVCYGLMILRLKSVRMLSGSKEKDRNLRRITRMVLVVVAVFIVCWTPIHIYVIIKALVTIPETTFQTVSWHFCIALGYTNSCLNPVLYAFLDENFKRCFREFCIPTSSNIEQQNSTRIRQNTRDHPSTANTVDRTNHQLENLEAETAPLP
UniProt P41146: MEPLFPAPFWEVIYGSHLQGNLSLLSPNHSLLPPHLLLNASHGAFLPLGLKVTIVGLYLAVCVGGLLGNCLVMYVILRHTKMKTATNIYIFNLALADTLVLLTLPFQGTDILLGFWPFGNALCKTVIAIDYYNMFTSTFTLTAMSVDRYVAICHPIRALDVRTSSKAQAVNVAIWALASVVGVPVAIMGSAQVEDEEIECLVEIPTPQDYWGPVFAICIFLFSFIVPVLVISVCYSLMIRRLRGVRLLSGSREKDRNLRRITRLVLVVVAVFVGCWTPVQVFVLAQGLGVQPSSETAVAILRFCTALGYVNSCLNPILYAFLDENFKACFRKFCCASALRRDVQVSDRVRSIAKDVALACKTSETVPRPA

Tests used:
Mu opioid receptor = Mu opioid receptor (Homo sapiens, UniProt P35372); assay: Affinity at the μ receptor ([35S]GTPγS binding, membranes); details: read-out: Mu Receptor Affinity calc Ki, Table 3
[1] = target: human opioid receptor-like receptor (ORL-1) (Homo sapiens, UniProt P41146); assay: Nociceptin affinity at the ORL1 receptor ([35S]GTPgS binding, membranes of recombinant HEK-293 cells); details: read-out: Nociceptin Affinity calc Ki; Table 1; ORL-1 membranes from recombinant HEK-293 cells; benzothiadiazole/benzothiadiazine series

Substance	Ki (Mu opioid receptor) [nM]	Ki [1] [nM]
1-[1-[4-(2-propyl)-cyclohexyl]-4-piperidinyl]-2,1,3-benzothiadiazin-2,2-dione	207	35.3
3-acetamido-1-[1-[4-(2-propyl)-cyclohexyl]-4-piperidinyl]-2,1,3-benzothiadiazin-2,2-dione	–	3.9
1-[1-(p-benzyloxybenzyl)-4-piperidinyl]-2,1,3-benzothiadiazin-2,2-dione	–	1880
1-[1-(4-propylcyclohexyl)-4-piperidinyl]-2,1,3-benzothiadiazin-2,2-dione	–	231
1-[1-(p-phenylbenzyl)-4-piperidinyl]-2,1,3-benzothiadiazin-2,2-dione	–	9540
1-[1-(3,3-Bis(phenyl)propyl)-4-piperidinyl]-2,1,3-benzothiadiazin-2,2-dione	–	83
1-[1-(5-methylhex-2-yl)-4-piperidinyl]-2,1,3-benzothiadiazin-2,2-dione	–	40
1-[1-(10,11-Dihydro-5H-dibenzo[a,d]-cyclohepten-5-yl)-4-piperidinyl]-2,1,3-benzothiadiazin-2,2-dione	–	505
1-[1-(decahydro-2-naphthyl)-4-piperidinyl]-2,1,3-benzothiadiazin-2,2-dione	91.7	28.7
1-[1-(1,2,3,4-tetrahydronaphthyl)-4-piperidinyl]-2,1,3-benzothiadiazin-2,2-dione	–	2610
1-[1-(1,3-dihydroinden-2-yl)-4-piperidinyl]-2,1,3-benzothiadiazin-2,2-dione	660	46
1-[1-(naphth-2-yl-methyl)-4-piperidinyl]-2,1,3-benzothiadiazin-2,2-dione	–	609
1-[1-(norbornan-2-yl)-4-piperidinyl]-2,1,3-benzothiadiazin-2,2-dione	–	6330
1-[1-(benzyl)-4-piperidinyl]-2,1,3-benzothiadiazin-2,2-dione	–	3900
1-[1-(cyclooctyl)-4-piperidinyl]-2,1,3-benzothiadiazin-2,2-dione	1380	187
